Reference: US5017602A, “Antagonists of organophosphate-induced toxicity” (dated 1991)

Columns and labels:
[1] = system: Paraoxon-induced toxicity; assay: Protection against Paraoxon-induced toxicity/lethality in mice; settings: for survival, Paraoxon-induced lethality: best survival reached; for Therapeutic Index: LD50/PD50; for therapeutic index / therapeutic ratio (in words): compared with physostigmine and pyridostigmine
[2] = system: neuromuscular transmission; assay: Inhibition of rabbit neuromuscular transmission; settings: for ID50 (95% C.L.), inhibition of rabbit neuromuscular transmission: IV, anesthetized rabbit, sciatic nerve stimulation, 95% C.L. in parentheses; for "cholinergic" responses: probably by inhibition of acetylcholinesterase; for Antagonism of the neuromuscular block by choline: choline chloride 5 mg/kg IV; for Inhibition of neuromuscular transmission (in words): rabbit
mice = assay: LD50 (IM) in mice
[3] = system: sodium-dependent high affinity choline uptake mechanism; settings: prior knowledge; cited from earlier work
[4] = system: neuromuscular transmission; settings: prior knowledge; cited from earlier work
choline transport = assay: Inhibition of choline transport (suggested by studies in rabbits)

For `CC1C[N+](C)(CC(=O)c2ccc(-c3ccc(C(=O)C[N+]4(C)CCOC(C)C4)cc3)cc2)CCO1` (centres unmarked), which “antagonism of Paraoxon-induced toxicity (in words)” value ([1]; mice) is on record?
Its value is “only moderately effective”.

What about the “survival, Paraoxon-induced lethality” value ([1]; mice) of the same compound?
The value was “at least 50%”.

And the “ID50 (95% C.L.), inhibition of rabbit neuromuscular transmission” value [2]?
Its value is over 0.16 µmol/kg.

What about the “"cholinergic" responses” value [2] of the same compound?
The value was “produced "cholinergic" responses”.

And the LD50 (mice; IM)?
The LD50 was 13.0 µmol/kg.

For `C[N+]1(CC(=O)c2ccc(-c3ccc(C(=O)C[N+]4(C)CCOCC4)cc3)cc2)CCOCC1`, which “"cholinergic" responses” value [2] is on record?
The value was “produced "cholinergic" responses”.

What about the LD50 (mice; IM) of the same compound?
Its LD50 is 3.8 µmol/kg.

For `CNC(=O)Oc1ccc2c(c1)[C@]1(C)CCN(C)[C@@H]1N2C`, which Therapeutic Index ([1]; mice) is on record?
Its Therapeutic Index is 60.

What about the LD50 (mice; Table 3) of the same compound?
The LD50 was 1.2 µmol/kg.

Which results are given for `O=C(CN1CCCC1)c1ccc(-c2ccc(C(=O)CN3CCCC3)cc2)cc1`?
ID50 (95% C.L.), inhibition of rabbit neuromuscular transmission [2]: > 5.6 µmol/kg; LD50 (mice; IM): 743.5 µmol/kg

What does the source list for `Br.Br.O=C(CN1CCCCC1)c1ccc(-c2ccc(C(=O)CN3CCCCC3)cc2)cc1`?
ID50 (95% C.L.), inhibition of rabbit neuromuscular transmission [2]: > 1.8 µmol/kg; LD50 (mice; IM): 397.5 µmol/kg

Which results are given for `C[N+]1(C)CCOC(O)(c2ccc(-c3ccc(C4(O)C[N+](C)(C)CCO4)cc3)cc2)C1` (centres unmarked)?
inhibition of sodium-dependent high affinity choline uptake (background) [3]: inhibition of the sodium-dependent high affinity choline uptake mechanism; blockade of neuromuscular transmission (background) [4]: blockade of neuromuscular transmission

Which results are given for `C[N+]1(CC(=O)c2ccc(-c3ccc(C(=O)C[N+]4(C)CCCC4)cc3)cc2)CCCC1`?
Antagonism of the neuromuscular block by choline [2]: choline is an effective antagonist; "cholinergic" responses [2]: produced "cholinergic" responses; Inhibition of neuromuscular transmission (in words) [2]: potent inhibitors of neuromuscular transmission; LD50 (mice; IM): 0.74 µmol/kg

For `C[N+]1(CC(=O)c2ccc(-c3ccc(C(=O)C[N+]4(C)CCCCC4)cc3)cc2)CCCCC1`, which “antagonism of Paraoxon-induced toxicity (in words)” value ([1]; mice) is on record?
Its value is “only moderately effective”.

And the “survival, Paraoxon-induced lethality” value ([1]; mice)?
The value was “at least 50%”.

And the “"cholinergic" responses” value [2]?
The value was “produced "cholinergic" responses”.

What about the LD50 (mice; IM) of the same compound?
Its LD50 is 1.6 µmol/kg.

What does the source list for `C[N+](C)(CC(=O)c1ccc(-c2ccc(C(=O)C[N+](C)(C)CC3OCCCO3)cc2)cc1)CC1OCCCO1`?
prophylactic effect ([1]; administered prior to exposure): prophylactic effect; therapeutic index / therapeutic ratio (in words) [1]: far superior to the commercially known antagonists; therapeutic index / therapeutic ratio (in words) ([1]; listed as 4,4'-bis-[(1,3-dioxan-2-ylmethyl)amino-acetyl]biphenylDimethbromide): very high therapeutic ratio; ED50, antagonism of Paraoxon-induced toxicity ([1]; mice, 1440 min): 0.013 mg/kg; Therapeutic Index ([1]; mice): 360; survival, Paraoxon-induced lethality ([1]; mice): at least 50%; inhibition of choline transport (in words) (choline transport): weak inhibitor of choline transport; "cholinergic" responses [2]: produced "cholinergic" responses; LD50 (mice; IM): 7.3 µmol/kg; LD50 (mice; Table 3): 7.3 µmol/kg

Which “Antagonism of the neuromuscular block by choline” value [2] does the source give for `CC1CCC[N+]1(C)CC(=O)c1ccc(-c2ccc(C(=O)C[N+]3(C)CCCC3C)cc2)cc1` (centres unmarked) here?
Its value is “choline is an effective antagonist”.

What about the “Inhibition of neuromuscular transmission (in words)” value [2] of the same compound?
Its value is “potent inhibitors of neuromuscular transmission”.

What about the LD50 (mice; IM) of the same compound?
The LD50 was 0.67 µmol/kg.

With `CN(C)C(=O)Oc1ccc[n+](C)c1` as the compound, how does the Therapeutic Index ([1]; mice) read?
Its Therapeutic Index is 8.

And the LD50 (mice; Table 3)?
The LD50 was 10.3 µmol/kg.

For `CC1CC[N+](C)(CC(=O)c2ccc(-c3ccc(C(=O)C[N+]4(C)CCC(C)C4)cc3)cc2)C1` (centres unmarked), which LD50 (mice; IM) is on record?
Its LD50 is 0.84 µmol/kg.

For `Cl.Cl.O=C(CN1CCOCC1)c1ccc(-c2ccc(C(=O)CN3CCOCC3)cc2)cc1`, which “ID50 (95% C.L.), inhibition of rabbit neuromuscular transmission” value [2] is on record?
Its value is over 2.08 µmol/kg.

What about the LD50 (mice; IM) of the same compound?
Its LD50 is over 2079 µmol/kg.
